From patent publication US20130123192A1

Target: E-cadherin (human (endogenous in human LNCaP cells)) (UniProt P12830)
Experiment: cell-based or functional assay

shed E-cadherin in the conditioned medium: 5 fold
Substance: MT1-MMP-GFP chimera (MT1-GFP) (from UniProt P50281 112-582)
